The text below walks through data of patent publication US10744084B2, “Non-specific delayed-type hypersensitivity response to treat herpes simplex virus infection” (Squarex, LLC, priority 2007, dated 2020).

A short description of this test: Presensitization and dose finding: DNCB solution in acetone applied to spots on the forearm, DTH rash/erythema observed. Conditions: 0.2% DNCB solution. Format: in vivo, human. From the text: The subject was presensitized to DNCB by dipping a cotton-tipped swab in a 2% DNCB solution in acetone, and contacting the cotton-tipped swab with two spots on the forearm. […] Two weeks later, the subject again applied a 2% DNCB solution to their forearm at two small spots different from where the sensitizing dose had been applied. […] The subject then applied a 0.1%, 0.2%, and 0.3% solutions to separate small spots on the forearm.

On to `O=[N+]([O-])c1ccc(Cl)c([N+](=O)[O-])c1` [DNCB, 1-chloro-2,4-dinitrobenzene], for which the duration of erythema entry is recorded as “about 3 days” and the “onset of erythema after applying the solution” value is recorded as 2 days.
